What all share (experiment): cells
Holding throughout (conditions): Homo sapiens

Assay [1] has as its system MV-4-11 cells.
The subject of assay [2] is K562 cells.
The subject of assay [3] is MOLM-13 cells.
Where [4] appears, read: MV4-11, 72 h, read-out: GI50 (μM) Day3 MV4;11, MV4;11, Day3.
Where [5] appears, read: K562, 72 h, read-out: GI50 (μM) Day3 K562.
[6] abbreviates: MOLM-13, 72 h, read-out: GI50 (μM) Day3 MOLM-13, MOLM-13, Day3.
Setting [7] is: MV4-11, 168 h, read-out: GI50 (μM) Day7 MV4;11, MV4;11, Day7.
The mark [8] stands for this setting: K562, 168 h, read-out: GI50 (μM) Day7 K562.
Setting [9] is: MOLM-13, 168 h, read-out: GI50 (μM) Day7 MOLM-13, MOLM-13, Day7.
[10] abbreviates: MV4-11, 168 h, read-out: GI50, cell growth inhibitory activity, MV-4-11, day 7, MV-4-11 cells, cultured 7 days, assigned by order and values.
[11] abbreviates: K562, 168 h, read-out: GI50, cell growth inhibitory activity, K562, day 7.
The mark [12] stands for this setting: MOLM-13, 168 h, read-out: GI50, cell growth inhibitory activity, MOLM-13, day 7, MOLM-13 cells, cultured 7 days, assigned by order and values.
Setting [13] is: MOLM-13, 168 h, read-out: GI50, cell growth inhibitory activity, MOLM-13, day 7.

SMILES strings stand for the structures. Structures can show the parent of a compound that is named as a salt. Where two headings read alike, the source gives them in different places.

As to `O=C1CCC(c2ccc(CN[C@H]3CCC[C@@H](Nc4ncnc5sc(CC(F)(F)F)cc45)C3)cc2)N1` (mixture of isomers) [Example 39, 5-[4-({[(1S,3R)-3-{[6-(2,2,2-trifluoroethyl)thieno[2,3-d]pyrimidin-4-yl[amino}cyclohexyl]amino}methyl)phenyl]pyrrolidin-2-one hydrochloride (diastereomer mixture)], the GI50 in assay [1] (setting [4]) is 8.14 µM; in assay [2] (setting [5]) it was greater than 10 µM; in assay [3] (setting [6]), greater than 10 µM.
As to `CN(c1ncnc2sc(CC(F)(F)F)cc12)[C@@H]1CC[C@H](NCc2ccc(S(=O)(=O)N3CCCC(O)C3)cc2)C1` (mixture of isomers) [Example 57, l-[4-({[(1S,3R)-3-{methyl[6-(2,2,2trifluoroethyl)thieno[2,3-d]pyrimidin-4-yl]amino}cyclopentyl]amino}methyl)benzene-1-sulfonyl]piperidin-3-ol hydrochloride (diastereomer mixture)], the GI50 in assay [1] (setting [4]) was 1.16 µM; in assay [1] (setting [7]), 0.689 µM; in assay [2] (setting [5]), 6.3 µM; in assay [2] (setting [8]) it was 3.03 µM; in assay [3] (setting [6]), 2.14 µM; in assay [3] (setting [9]), 1.56 µM.
As to `COc1cc(-c2ccc(CN[C@H]3C[C@@H](O)[C@@H](N(C)c4ncnc5sc(CC(F)(F)F)cc45)C3)cc2)nnc1OC1CCCOC1` (mixture of isomers) [Example 108, (1R,2S,4R)-4-{[(4-{5-methoxy-6-[(oxan-3-yl)oxy]pyridazin-3-yl}phenyl)methyl]amino}-2-{methyl[6-(2,2,2-trifluoroethyl)thieno[2,3-d]pyrimidin-4-yl]amino}cyclopentan-1-ol hydrochloride], the 50% growth inhibitory concentration (GI50) is 0.0234 µM in assay [1] (setting [10]), greater than 5 µM in assay [2] (setting [11]) and 0.0622 µM in assay [3] (setting [12]).
Turning to `COc1nc(N(C)[C@H]2C[C@@H](NCC3CC=C(c4cc(OC)c(OC)nn4)CC3)C[C@H]2O)c2cc(CC(F)(F)F)sc2n1` (mixture of isomers) [Example 125, (1R,2S,4R)-4-({[4-(5,6-dimethoxypyridazin-3-yl)cyclohex-3-en-1-yl]methyl}amino)-2-{[2-methoxy-6-(2,2,2-trifluoroethyl)thieno[2,3-d]pyrimidin-4-yl](methyl)amino}cyclopentan-1-ol hydrochloride], the GI50 came out at 0.0769 µM in assay [1] (setting [10]), 3.75 µM in assay [2] (setting [11]) and 0.154 µM in assay [3] (setting [12]).
As to `COc1cncc(-c2ccc(CN[C@H]3C[C@@H](O)C[C@@H](Nc4ncnc5sc(CC(F)(F)F)cc45)C3)cc2)c1` (single isomer, unassigned) [Example 15A, Hydrochloride], the figures for the GI50 in assay [1] (setting [4]), in assay [2] (setting [5]) and in assay [3] (setting [6]) were 0.269 µM, greater than 10 µM and 4.41 µM, respectively.
On to `COc1cncc(-c2ccc(CN[C@@H]3C[C@H](O)C[C@H](Nc4ncnc5sc(CC(F)(F)F)cc45)C3)cc2)c1` (single isomer, unassigned) [Example 15B, Hydrochloride], for which the GI50 was 1.88 µM in assay [1] (setting [4]), 5.42 µM in assay [2] (setting [5]) and 3.15 µM in assay [3] (setting [6]).
As to `COc1cncc(-c2ccc(CN[C@H]3C[C@@H](Nc4ncnc5sc(CC(F)(F)F)cc45)C[C@@H](C(=O)N(C)C)C3)cc2)c1` (single isomer, unassigned) [Example 17A, Hydrochloride], the GI50 in assay [1] (setting [4]) is 2.25 µM; in assay [1] (setting [7]) it was 1.58 µM; in assay [2] (setting [5]) it was 8.66 µM; in assay [2] (setting [8]), 5.27 µM; in assay [3] (setting [6]) it was 3.29 µM; in assay [3] (setting [9]), 3.35 µM.
As for `COc1cncc(-c2ccc(CN[C@@H]3C[C@H](Nc4ncnc5sc(CC(F)(F)F)cc45)C[C@H](C(=O)N(C)C)C3)cc2)c1` (single isomer, unassigned) [Example 17B, Hydrochloride], the GI50 is 0.17 µM in assay [1] (setting [4]); 0.118 µM in assay [1] (setting [7]); greater than 10 µM in assay [2] (setting [5]); 7.25 µM in assay [2] (setting [8]); 5 µM in assay [3] (setting [6]); 0.31 µM in assay [3] (setting [9]).
Regarding `N#Cc1cc2cc(CN[C@@H]3CC[C@@H](Nc4ncnc5sc(CC(F)(F)F)cc45)C3)ccc2[nH]1` [Example 1, 5-({[(1R,3R)-3-{[6-(2,2,2-trifluoroethyl)thieno[2,3-d]pyrimidin-4-yl]amino}cyclopentyl]amino}methyl)-1H-indole-2-carbonitrile Hydrochloride], the GI50 was 1.79 µM in assay [1] (setting [4]) and 5.09 µM in assay [2] (setting [5]).
The corresponding values for `Cc1c(CN[C@H]2CC[C@@H](N(C)c3ncnc4sc(CC(F)(F)F)cc34)C2)ccc2c1cc(C#N)n2Cc1cn[nH]c1` [Example 2, 4-methyl-5-({[(1S,3R)-3-{methyl[6-(2,2,2-trifluoroethyl)thieno[2,3-d]pyrimidin-4-yl]amino}cyclopentyl]amino}methyl)-1-[(1H-pyrazol-4-yl)methyl]-1H-indole-2-carbonitrile Hydrochloride] are 0.33 µM and 2.81 µM.
Taken in the same sequence, the figures for `CN(c1ncnc2sc(CC(F)(F)F)nc12)[C@@H]1CC[C@H](NCc2ccc3[nH]c(C#N)cc3c2)C1` [Example 3, 5-({[(1S,3R)-3-{methyl[2-(2,2,2-trifluoroethyl)[1,3]thiazolo[5,4-d]pyrimidin-7-yl]amino}cyclopentyl]amino}methyl)-1H-indole-2-carbonitrile Hydrochloride] were 0.748 µM and 3.78 µM.
In the case of `CN(c1ncnc2cc(CC(F)(F)F)sc12)[C@@H]1CC[C@H](NCc2ccc3[nH]c(C#N)cc3c2)C1` [Example 4, 5-({[(1S,3R)-3-{methyl[6-(2,2,2-trifluoroethyl)thieno[3,2-d]pyrimidin-4-yl]amino}cyclopentyl]amino}methyl)-1H-indole-2-carbonitrile], the GI50 in assay [1] (setting [4]) came to 1.32 µM; in assay [2] (setting [5]) it was 4.37 µM.
In the case of `CN(c1ncnc2ccc(CC(F)(F)F)cc12)[C@@H]1CC[C@H](NCc2ccc(O)cc2)C1` [Example 5, 4-({[(1S,3R)-3-{methyl[6-(2,2,2-trifluoroethyl)quinazolin-4-yl]amino}cyclopentyl]amino}methyl)phenol Hydrochloride], the GI50 was 3.12 µM in assay [1] (setting [4]) and greater than 10 µM in assay [2] (setting [5]).
As for `C=CC(=O)NCCCNC(=O)c1ccc(CN[C@H]2CC[C@@H](N(C)c3ncnc4sc(CC(F)(F)F)cc34)C2)cc1` [Example 6, 4-({[(1S,3R)-3-{methyl[6-(2,2,2-trifluoroethyl)thieno[2,3-d]pyrimidin-4-yl]amino}cyclopentyl]amino}methyl)-N-{3-[(prop-2-enoyl)amino]propyl}benzamide Hydrochloride], the GI50 in assay [1] (setting [4]) is 0.679 µM; in assay [1] (setting [7]), 0.439 µM; in assay [2] (setting [5]), greater than 10 µM; in assay [2] (setting [8]) it was 6.89 µM; in assay [3] (setting [9]), 1.1 µM.
Turning to `CN(c1ncnc2sc(CC(F)(F)F)cc12)[C@@H]1CC[C@H](NCC2CCCCC2)C1` [Example 28, (1R,3S)-N^3-(cyclohexylmethyl)-N^1-methyl-N^1-[6-(2,2,2-trifluoroethyl)thieno[2,3-d]pyrimidin-4-yl]cyclopentane-1,3-diamine hydrochloride], the GI50 in assay [1] (setting [4]) came out at 5.34 µM; in assay [2] (setting [5]), 6.31 µM.
Consider `CN(c1ncnc2sc(CC(F)(F)F)cc12)[C@@H]1CC[C@H](NCc2ccc(OCCN3CCOCC3)cc2)C1` [Example 30, (1R,3S)-N^1-methyl-N^3-({4-[2-(morpholin-4-yl)ethoxy]phenyl}methyl)-N^1-[6-(2,2,2-trifluoroethyl)thieno[2,3-d]pyrimidin-4-yl]cyclopentane-1,3-diamine hydrochloride], for which the GI50 in assay [1] (setting [4]) was determined as 0.867 µM; in assay [2] (setting [5]) it was 2.34 µM.
For `CN(c1ncnc2sc(CC(F)(F)F)cc12)[C@@H]1CC[C@H](NCc2ccc(OCCO)c(F)c2)C1` [Example 31, 2-[2-fluoro-4-({[(1S,3R)-3-{methyl[6-(2,2,2-trifluoroethyl)thieno[2,3-d]pyrimidin-4-yl]amino}cyclopentyl]amino}methyl)phenoxy]ethan-1-ol hydrochloride], the GI50 in assay [1] (setting [4]) was 1.29 µM; in assay [2] (setting [5]), greater than 10 µM.
Turning to `CN(c1ncnc2sc(CC(F)(F)F)cc12)[C@@H]1CC[C@H](NCc2cnn(-c3ccccc3)c2)C1` [Example 32, (1R,3S)-N^1-methyl-N^3-[(1-phenyl-1H-pyrazol-4-yl)methyl]-N^1-[6-(2,2,2-trifluoroethyl)thieno[2,3-d]pyrimidin-4-yl]cyclopentane-1,3-diamine hydrochloride], the GI50 was determined as 2.43 µM in assay [1] (setting [4]) and 5.59 µM in assay [2] (setting [5]).
For the molecule `COc1nc(N(C)[C@H]2C[C@@H](NCc3ccc(-c4cc(OC)c(OC(F)F)nn4)cc3)C[C@H]2O)c2cc(CC(F)(F)F)sc2n1` [Example 119, (1R,2S,4R)-4-[({4-[6-(difluoromethoxy)-5-methoxypyridazin-3-yl]phenyl}methy)amino]-2-{[2-methoxy-6-(2,2,2-trifluoroethyl)thieno[2,3-d]pyrimidin-4-yl](methyl)amino}cyclopentan-1-ol hydrochloride], the GI50 in assay [3] (setting [13]) is 0.0637 µM.
Still for that read-out and setting: with `[2H]C([2H])([2H])N(c1ncc(-c2ccc(CN[C@H]3C[C@@H](O)[C@@H](N(C)c4ncnc5sc(CC(F)(F)F)cc45)C3)cc2)cc1OC)C([2H])([2H])[2H]` [Example 122, (1R,2S,4R)-4-({[4-(6-{bis[(^2H3)methyl]amino}-5-methoxypyridin-3-yl)phenyl]methyl}amino)-2-{methyl[6-(2,2,2-trifluoroethyl)thieno[2,3-d]pyrimidin-4-yl]amino}cyclopentan-1-ol] the figure was 0.236 µM.

For the origin of these results see patent publication US11236106B2, “Cycloalkane-1,3-diamine derivative” (Daiichi Sankyo Company, Limited, priority 2018, dated 2022).
